This is a sample that favours compounds with a hit; in the whole collection about 1.8% have one here.
UUG fidelity – modulators of start codon recognition fidelity in yeast; AID 602363; hit rate 0.13% among 350,000; activity score, % at 18.7 µM; S. cerevisiae UUG-firefly luciferase reporter, luminescence/redox ratio;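 active = replicate mean at a twofold rise or more, about +100% in these data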;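 note: firefly luciferase made from a UUG start codon reports start codon fidelity; reporter light over untreated wells divided by growth signal over untreated wells; some hits fall short of that in this replicate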
E-sel inducer – E-selectin induction on HUVECs; activation, % at 7.58 µM; P16581; 0.37% of 260,000 active; HUVEC E-selectin immunofluorescence imaging; normalized: neutral wells 0, TNF-alpha wells 100; AID 686992;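 active = mean E-selectin-positive cell signal at least 10% of the positive control, reached in at least 60% of replicates, without over 20% cell loss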
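material = human umbilical vein endothelial cells (HUVEC), E-selectin induction | quantity = 3,000 cells/well | medium = EGM-2 growth medium on 0.1% gelatin-coated wells | technique = immunofluorescence imaging | read-out basis = % PE-positive cells | control set = TNF-alpha positive control, DMSO neutral control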
SIRT5 block – inhibitors of human sirtuin-5 desuccinylase | inhibition, % at 15 µM | AID 652115 | Q9NXA8 | Purified SirT5, succinyl-peptide AMC, trypsin-coupled fluorescence | 1.1% of 330,000 active; in the data active = inhibition above about 15%
RAD54 branch – RAD54 (human) branch migration inhibition. RAD54 Holliday junction branch migration, FAM/BHQ fluorescence. inhibition, % at 10.4 µM. 0.14% of 360,000 active;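 active = mean normalized replicate activity at least 40 and at least half of replicates scoring 40 or more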;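 note: 0% = median of neutral control wells and 100% = median of positive control wells; inhibitors cause a drop in the FAM fluorescence signal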
MLL AF4-AF9 inh – MLL-AF4/AF9 protein interaction inhibition. AlphaScreen, biotin-AF4 peptide binding to FLAG-AF9. inhibition, % at 10 µM. 0.47% of 350,000 active. AID 651704;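 active = every replicate reaching a set inhibition limit, whatever the replicate mean, cut at about 25% in these data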;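 note: 0% = plate neutral control median and 100% = total signal loss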
RAD52 anneal inh – blocks human RAD52 DNA annealing | inhibition, % at 18.7 µM | P43351 | AID 651710 | 0.46% of 360,000 active | recombinant RAD52 DNA annealing, FRET fluorescence;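 active = every replicate showing at least 50% inhibition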
Active calls of the source: *; nt = not tested or not shown.

Field names: A = UUG fidelity; B = E-sel inducer; C = SIRT5 block; D = RAD54 branch; E = MLL AF4-AF9 inh; F = RAD52 anneal inh
1: COc1ccc(NC(=O)N(C)C[C@H]2Oc3ccc(NC(=O)Cc4cn(C)c5ccccc45)cc3C(=O)N([C@@H](C)CO)C[C@@H]2C)cc1
  A = 7.7	B = -0.7	C = 4.8	D = 0.3	E = 2.2	F = -6.2
2: COc1ccc(NC(=O)N(C)C[C@H]2Oc3ccc(NC(=O)Cc4cn(C)c5ccccc45)cc3C(=O)N([C@H](C)CO)C[C@@H]2C)cc1
  A = 5.6	B = 32.0*	C = 3.2	D = -7.9	E = 0.4	F = -11.9
3: C[C@H](CO)N1C[C@H](C)[C@H](CN(C)C)Oc2ccc(NC(=O)Cc3cn(C)c4ccccc34)cc2C1=O
  A = -6.4	B = 37.3*	C = 1.0	D = 6.4	E = -8.6	F = 1.6
4: Cc1ccc(-c2ccc([C@@H]3[C@@H](CO)N4C(=O)CN(C(=O)Nc5cccc(F)c5)C[C@H]34)cc2)cc1
  A = nt	B = -0.3	C = 3.6	D = nt	E = -2.5	F = 1.3
5: C[C@H]1CN([C@@H](C)CO)C(=O)c2cc(C#CCc3ccccc3)cnc2O[C@@H]1CN(C)CC1CCCC1
  A = -6.3	B = -0.3	C = -4.3	D = -6.2	E = 13.3	F = -4.5
6: COCCn1c(=O)[nH]c(=O)c2c1nc(-c1ccc(-c3ccc(Cl)cc3[N+](=O)[O-])o1)n2Cc1ccccc1
  A = nt	B = nt	C = 1.6	D = nt	E = 7.7	F = -9.5
7: COCCn1c(-c2ccc(-c3ccc([N+](=O)[O-])cc3Br)o2)nc2c1c(=O)[nH]c(=O)n2CC(C)C
  A = 9.0	B = nt	C = 15.5*	D = -8.2	E = 2.3	F = -50.8
8: OCc1ccc(-c2nn(Cc3ccccc3)c3ccccc23)o1
  A = -15.2	B = 117.2*	C = -16.0	D = 4.6	E = 9.5	F = -29.4
9: O=c1c2ccccc2c(-c2n[nH]c(=S)o2)nn1Cc1ccccc1
  A = nt	B = nt	C = nt	D = nt	E = -1.5	F = -30.0
10: CCC(=O)Nc1ccc2c(c1)C(=O)N(C)C[C@H](OC)[C@H](C)CN(Cc1ccccn1)[C@H](C)CO2
  A = -0.6	B = 0.1	C = -2.5	D = -2.6	E = -0.4	F = 17.9
11: CCOC(=O)c1c(CSc2ccsc2)n(C)c2cc(Br)c(O)c(CN(C)C)c12
  A = nt	B = 0.5	C = 20.3*	D = nt	E = 16.3	F = 39.1
12: CN1CCN(C(=O)CCN2C(=O)/C(=C/c3cccc(Br)c3)SC2=S)CC1
  A = -19.7	B = nt	C = -0.9	D = 19.8	E = 3.9	F = -15.6
13: CCc1ccc(/C=C2\SC(=S)N(CCCC(=O)N3CCN(C)CC3)C2=O)cc1
  A = -67.2	B = -0.2	C = nt	D = 5.0	E = 33.4*	F = -56.8
14: CN1CCN(C(=O)CCCN2C(=O)/C(=C/c3cccc(Br)c3)SC2=S)CC1
  A = -28.9	B = nt	C = -1.7	D = -7.3	E = 27.4*	F = -5.4
15: COC(=O)c1ccc(/C=C2/SC(=S)N(CCC(=O)NCCCN3CCOCC3)C2=O)cc1
  A = 2.8	B = nt	C = 23.2*	D = -2.2	E = 1.7	F = -15.6
16: O=C(N[C@H]1CC[C@@H](CCn2cc(Cc3ccccc3)nn2)O[C@H]1CO)c1ccccn1
  A = -7.3	B = -0.2	C = -2.7	D = -3.9	E = -1.1	F = -1.1
17: Cc1noc(C)c1S(=O)(=O)Nc1ccc2c(c1)CC(=O)N([C@H](C)CO)C[C@H](C)[C@@H](CN(C)CC1CCCCC1)O2
  A = 1.2	B = -0.1	C = -0.9	D = 2.2	E = 6.4	F = -2.2
18: Cc1ccc(S(=O)(=O)N2CC[C@@H]3[C@@H](CO)N(C)c4ccc(-c5ccc(C#N)cc5)cc4[C@@H]32)cc1
  A = -19.6	B = 3.6	C = -13.1	D = 5.5	E = -0.2	F = -10.3
19: O=C1c2cccc([N+](=O)[O-])c2C(=O)N1c1ccccc1
  A = -24.0	B = nt	C = 1.5	D = 0.6	E = 1.7	F = -2.5
20: O=C1c2cccc([N+](=O)[O-])c2C(=O)N1c1cccnc1
  A = nt	B = nt	C = 19.5*	D = nt	E = 2.2	F = 3.6
21: Cc1[nH]c2ccccc2c1C(=O)CSc1nnc(C2CC2)o1
  A = -8.4	B = nt	C = -2.3	D = -4.9	E = 26.2*	F = -4.8
22: C[C@H](CO)N1C[C@H](C)[C@H](CN(C)S(=O)(=O)c2ccccc2)Oc2ccc(N(C)C)cc2CC1=O
  A = nt	B = nt	C = 1.9	D = -14.7	E = 0.0	F = -15.7
23: CCC(=O)Nc1ccc2c(c1)C(=O)N(C)C[C@H](OC)[C@@H](C)CN(CC1CCCCC1)[C@H](C)CO2
  A = 25.1	B = 0.0	C = 18.1*	D = -0.8	E = -0.4	F = 17.8
24: COCC(=O)Nc1ccc2c(c1)OC[C@@H](C)N(CC1CC1)C[C@H](C)[C@@H](OC)CN(C)C2=O
  A = nt	B = 0.0	C = 5.4	D = 3.1	E = -1.6	F = -4.8
25: COCC(=O)Nc1ccc2c(c1)OC[C@H](C)N(CC1CC1)C[C@@H](C)[C@@H](OC)CN(C)C2=O
  A = nt	B = 0.0	C = 20.2*	D = 5.6	E = -1.1	F = -0.5
26: CCC(=O)Nc1ccc2c(c1)C(=O)N(C)C[C@@H](OC)[C@@H](C)CN(CC1CCCCC1)[C@H](C)CO2
  A = -7.2	B = 0.0	C = 10.2	D = -8.4	E = -0.8	F = 4.5
27: COCC(=O)Nc1ccc2c(c1)C(=O)N(C)C[C@@H](OC)[C@H](C)CN(Cc1ccccn1)[C@H](C)CO2
  A = nt	B = -0.1	C = 22.6*	D = -4.4	E = 3.3	F = -12.0
28: CCNC(=O)C[C@H]1CC[C@@H]2[C@@H](COc3ccc(NC(=O)Nc4ccccc4Cl)cc3C(=O)N2C)O1
  A = 11.7	B = 0.1	C = -1.6	D = 2.5	E = 0.0	F = -3.9
29: Cc1cc(Cl)nc(Cl)c1C(=O)N1CCOCC1
  A = -11.1	B = 4.1	C = 22.2*	D = 2.9	E = -1.2	F = -5.6
30: Cc1ccc(C(=O)N2CCOCC2)cc1Cl
  A = -47.1	B = nt	C = nt	D = -8.0	E = nt	F = nt
31: C[C@H]1CN([C@@H](C)CO)C(=O)c2cccc(NS(=O)(=O)c3cccs3)c2O[C@H]1CN(C)S(=O)(=O)c1ccc(F)cc1
  A = 3.3	B = 0.1	C = -4.7	D = -0.1	E = 0.1	F = -17.4
32: CC(C)(C)c1ccc(C(=O)Nc2ccc3c(c2)C(=O)NC3=O)cc1
  A = 1.2	B = 137.5*	C = -9.1	D = -5.0	E = -5.6	F = 4.7
33: O=C(Cc1ccc2c(c1)OCCO2)N1CCN(S(=O)(=O)c2ccccc2C(F)(F)F)CC1
  A = 4.1	B = nt	C = -1.3	D = -12.1	E = 14.6	F = -19.3
34: O=C(Cc1ccc2c(c1)OCCO2)N1CCN(S(=O)(=O)c2cccc(Cl)c2Cl)CC1
  A = 7.9	B = nt	C = -7.0	D = -1.4	E = 29.9*	F = -1.9
35: Cc1ccc(C)c(N)c1
  A = -2.4	B = nt	C = nt	D = 2.3	E = nt	F = -10.4
36: Cc1cc(Cc2cc(C)c(N)cc2C)c(C)cc1N
  A = -10.9	B = 2.3	C = 21.1*	D = 3.4	E = 2.7	F = -6.6
37: COc1ccc(-c2cn(CC[C@@H]3CC[C@@H](NC(=O)Nc4ccc(F)cc4)[C@@H](CO)O3)nn2)cc1
  A = nt	B = -0.5	C = 1.6	D = nt	E = -4.0	F = 7.1
38: COCC(=O)Nc1ccc2c(c1)OC[C@@H](C)N(C(=O)NC(C)C)C[C@H](C)[C@H](OC)CN(C)C2=O
  A = nt	B = -0.1	C = nt	D = nt	E = nt	F = nt
39: COc1ccc([C@H]2CC(=O)C=C(c3ccc(CNC(=O)OC(C)(C)C)cc3)C2)cc1
  A = -24.8	B = 29.5*	C = nt	D = -1.4	E = nt	F = -12.3
40: CC(C)CCNC(=O)c1cn(C)c2ccc(S(=O)(=O)N3CCCC3)cc2c1=O
  A = 3.0	B = 36.8*	C = -1.6	D = 6.3	E = -2.6	F = -10.1
41: O=C(COC(=O)c1ccc(-c2ccc([N+](=O)[O-])cc2)o1)NC(=O)NC1CCCCC1
  A = -11.8	B = -0.2	C = -4.6	D = -5.5	E = 0.5	F = -17.1
42: O=C(COC(=O)c1ccc(-c2ccc([N+](=O)[O-])cc2)o1)NC(=O)NC12CC3CC(CC(C3)C1)C2
  A = nt	B = 149.3*	C = 12.5	D = nt	E = 5.1	F = -16.5
43: Cc1ccc2[nH]c(C(=O)N3CCN(C=O)CC3)cc2c1
  A = 2.0	B = nt	C = 15.7*	D = 0.5	E = -2.7	F = -14.9
44: Cc1noc(C)c1S(=O)(=O)Nc1ccc2c(c1)CC(=O)N([C@H](C)CO)C[C@H](C)[C@@H](CN(C)Cc1ccc(-c3ccccc3)cc1)O2
  A = nt	B = 58.0*	C = 4.4	D = nt	E = 2.1	F = 47.0

Complete entries from above. Order of screens: UUG fidelity, E-sel inducer, SIRT5 block, RAD54 branch, MLL AF4-AF9 inh, RAD52 anneal inh
Results for Cc1ccc(C(=O)N2CCOCC2)cc1Cl : -47.1, nt, nt, -8.0, nt, nt
Results for Cc1ccc(-c2ccc([C@@H]3[C@@H](CO)N4C(=O)CN(C(=O)Nc5cccc(F)c5)C[C@H]34)cc2)cc1 : nt, -0.3, 3.6, nt, -2.5, 1.3
Results for C[C@H]1CN([C@@H](C)CO)C(=O)c2cccc(NS(=O)(=O)c3cccs3)c2O[C@H]1CN(C)S(=O)(=O)c1ccc(F)cc1 : 3.3, 0.1, -4.7, -0.1, 0.1, -17.4

Assay outcomes as filed in PubChem BioAssay.
